In PMC10747029 (Pharmaceutics, 2023):

What was measured:
Assay type in all cases: cell-based
[1] = system: human cervical adenocarcinoma HeLa; test: MTT cell viability assay, HeLa; conditions: IC50 (non-tumor Wi-38 cells)/IC50 (HeLa)
Description: (§1) The cell cultures were grown at 37 °C in an atmosphere of 5% CO2 and 100% humidity.
(§2) The cell viability was assessed using the MTT method. The cell cultures were seeded in 96-well plates at a density of 10,000 cells per well. After the cells were attached to the surface of the wells, they were incubated in the presence of the test substances at final concentrations in the range of 10^−8 M to 10^−4 M for 48 h. […] At the end of the incubation, the medium in which the cells with substances were cultivated was replaced with a nutrient medium without fetal calf serum, which contained 5 mg/mL MTT, and the incubation continued for another 2 h in a CO2 incubator. After incubation, the medium with MTT was removed, and a DMSO solution was added to the wells to dissolve the formazan precipitate formed from MTT during the cell life. The optical density of the samples was measured at a wavelength of 530 nm on a photometer Uniplan AIFR-01 (Pikon, Moscow, Russia). The cell viability in the cultures was expressed as a percentage relative to the values obtained for the control samples (without tested compounds). The average values of optical density in the control samples were taken as 100%.
(§3) Statistical analysis was carried out using the GraphPad Prism v8.4.3 software with nonlinear regression analysis for the cell viability assay. […] The mean ± standard deviation value was calculated for each point.

[2] = system: human larynx carcinoma Hep-2; test: MTT cell viability assay, Hep-2; conditions: IC50 (non-tumor Wi-38 cells)/IC50 (Hep-2)
Description: as §1, §2, §3

[3] = system: human chronic erythroleukemia K-562; test: MTT cell viability assay, K-562; conditions: IC50 (non-tumor Wi-38 cells)/IC50 (K-562)
Description: as §1, §2, §3

[4] = system: human breast adenocarcinoma MCF-7; test: MTT cell viability assay, MCF-7; conditions: IC50 (non-tumor Wi-38 cells)/IC50 (MCF-7)
Description: as §1, §2, §3

## C[C@@H]1C[C@H]2[C@@H]3CCC4=CC(=O)C=C[C@]4(C)[C@@]3(F)[C@@H](O)C[C@]2(C)[C@@]1(O)C(=O)CO [DEX, dexamethasone]
[1]
  Selectivity index (SI) HeLa: 13.44
[2]
  Selectivity index (SI) Hep-2: 1.61
[3]
  Selectivity index (SI) K-562: 16.71
[4]
  Selectivity index (SI) MCF-7: 0.78
